Values quoted from earlier work in patent US11866449B2, “Crystalline polymorphs of a muscarinic acetylcholine receptor agonist” (NSC Therapeutics GmbH, priority 2016, dated 2024).

The chains behind the UniProt entries cited, without tags or fusion partners. Where a name states a change or a piece, a line headed by the entry shows the natural chain unless it says otherwise.
UniProt P11229: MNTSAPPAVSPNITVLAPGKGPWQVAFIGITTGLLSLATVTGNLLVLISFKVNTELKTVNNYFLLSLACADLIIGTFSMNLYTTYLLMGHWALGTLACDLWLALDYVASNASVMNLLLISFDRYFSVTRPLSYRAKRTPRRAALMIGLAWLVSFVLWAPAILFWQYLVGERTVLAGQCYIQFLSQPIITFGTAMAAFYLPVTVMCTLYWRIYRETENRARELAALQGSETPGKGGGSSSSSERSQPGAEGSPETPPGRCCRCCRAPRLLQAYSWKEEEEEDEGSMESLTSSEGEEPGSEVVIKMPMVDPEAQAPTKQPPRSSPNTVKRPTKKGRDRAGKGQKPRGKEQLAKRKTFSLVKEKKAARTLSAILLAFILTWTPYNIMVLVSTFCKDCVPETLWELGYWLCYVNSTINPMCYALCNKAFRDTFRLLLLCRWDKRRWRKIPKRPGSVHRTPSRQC

Molecular target: M1 muscarinic receptor (Homo sapiens, UniProt P11229)
Conditions: orthosteric muscarinic agonist; background; cited from earlier work

CCCCCCOc1nsnc1C1=CCCN(C)C1 [Xanomeline]
Muscarinic receptor subtype selectivity: modest selectivity for M1 and M4
